The text below walks through data of ChEMBL document CHEMBL5725546, “Triazine derivative and pharmaceutical composition having an analgesic activity comprising the same” (2017).

The target in the test is T1, P2X purinoceptor 3 (Homo sapiens, UniProt P56373).
T1 sequence (P56373 whole entry): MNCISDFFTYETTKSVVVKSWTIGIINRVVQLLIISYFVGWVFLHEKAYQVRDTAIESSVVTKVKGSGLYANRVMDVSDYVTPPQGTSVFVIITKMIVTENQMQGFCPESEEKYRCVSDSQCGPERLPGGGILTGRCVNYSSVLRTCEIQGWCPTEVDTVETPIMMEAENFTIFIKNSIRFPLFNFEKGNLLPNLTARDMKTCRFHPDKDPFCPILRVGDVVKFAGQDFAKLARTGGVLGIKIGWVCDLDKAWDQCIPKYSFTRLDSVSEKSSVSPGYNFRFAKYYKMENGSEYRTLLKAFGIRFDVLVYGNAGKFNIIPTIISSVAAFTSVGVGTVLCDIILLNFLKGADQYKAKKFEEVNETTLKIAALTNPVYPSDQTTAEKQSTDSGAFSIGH
Put plainly: Human P2X3 Receptor Inhibition Assay: Stably expressing cell line (C6BU-1 transfected with human P2X3 receptor gene (GenBank accession number Y07683) was used. […] The medium was replaced with 4 μM Fluo-3-AM solution (20 mM HEPES, 137 mM NaCl, 2.7 mM KCl, 0.9 mM MgCl2, 5.0 mM CaCl2, 5.6 mM D-glucose, 2.5 mM probenecid, 10% BSA, and 0.08% Pluronic F-127, pH 7.5) and incubated at 37° C. under 5% dioxide carbon atmosphere for one hour. The plate was washed with washing buffer (20 mM HEPES, 137 mM NaCl, 2.7 KCl, 0.9 mM MgCl2, 5.0 mM CaCl2, 5.6 mM D-glucose, 2.5 mM probenecid, pH 7.5), each well was added with 40 μL of this buffer. The plate was placed in High-Throughput Screening System FDSS 3000 (Hamamatsu Photonics K.K.). Measurement of fluorescence intensity by FDSS 3000 was started, and 40 μl, of DMSO solutions containing different concentrations of the test, compound as prepared by dilution with dilution buffer (20 mM HEPES, 137 mM NaCl, 2.7 mM KCl, 0.9 mM MgCl2, 5.0 mM CaCl2, 5.6 mM D-glucose, 2.5 mM probenecid, 0.1.% Pluronic F-127, pH 7.5) were dispensed to each well through the built-in automatic dispenser. Five minutes after, 50 nM ATP solution (50 μL) prepared by dilution with the dilution buffer was dispensed through the built-in automatic dispenser, and the measurement of fluorescence intensity was continued for 3 min. […].

Broadly, the IC50 is the concentration needed to halve the response being measured. Read a low IC50 as greater potency in that assay.

`CC(CO)(CO)Cn1c(=O)[nH]/c(=N\c2ccc(Oc3cccnn3)cc2)n(Cc2ccc(Cl)cc2)c1=O` returned an IC50 of 4 nM.
